Measurements taken from US12708622B2, “Methods of treating cancer and inhibiting TYK2 and MEK” (Washington University, priority 2021, dated 2026).

Assay: Mouse body weight and health in the MPNST tumor models
Format: in vivo, mice
Settings: JW23.3, WU-386 and JH-2-002 mouse models; daily treatment, three weeks
Method: . […] After 7-10 days, mice were treated daily with 1.5 mg/kg deucravacitinib (Deucra, BMS-986165), 30 mg/kg mirdametinib (Mirda), the combination of drugs, or vehicle control for three weeks or until tumors reached the maximum allowed volume. Mouse body weight, an indicator of health, was measured 2-3 times per week.

SMILES: [2H]C([2H])([2H])NC(=O)c1nnc(NC(=O)C2CC2)cc1Nc1cccc(-c2ncn(C)n2)c1OC [deucravacitinib]
- mouse body weight / adverse health effects: did not significantly decrease mouse body weight
